Values of other authors, collected in patent US20230174946A1, “ORGAN INFECTION MODELS” (priority 2020, published 2023).

Test system: coxsackievirus
Settings: dose-dependent; previous study; cited from earlier work

B1: IFNB1: known anti-viral cytokine; Type 1 interferon; stock provided by Dr. Jay Kolls (protein, UniProt P01574 22-187, looked up)
Interferon beta: MSYNLLGFLQRSSNFQCQKLLWQLNGRLEYCLKDRMNFDIPEEIKQLQQFQKEDAALTIYEMLQNIFAIFRQDSSSTGWNETIVENLLANVYHQINHLKTVLEEKLEKEDFTRGKLMSSLHLKRYYGRILHYLKAKEYSHCAWTIVRVEILRNFYFINRLTGYLRN
- effect on coxsackievirus proliferation in vitro: significantly reduce coxsackievirus proliferation
